# PubChem BioAssay AID485275 (NMMLSC, 2010)
# The entries are a selection whose mix differs from that of the whole data set. Some tests of the compounds listed are not included; inactive here does not mean inactive elsewhere. Calls of active or inactive are those of the source.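 Rule for the calls: active = plate passing quality check with inhibition over a set limit, or well fluorescence over plate mean plus 4 SD; inactive = the rest.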
# Experiment: antifungal drug efflux pump blockers, triplex strains – S. cerevisiae, Nile Red, multiplex, primary screen (AID 485275);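 note: Nile Red retained in pooled yeast measured as flow cytometry median fluorescence; 0% = buffer negative control and 100% = Enniatin B positive control; higher means more Nile Red kept so more efflux inhibition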
# Settings: S. cerevisiae Candida pump triplex, at 10 µM, stronger effect = higher value
row,SMILES,inhibition
1,CN(C)c1ccc(C(=O)NCC2(N(C)C)CCCCC2)cc1,inactive: -0.05%
2,CN(C)C1CCCC1OC(=O)C(O)(c1ccccc1)c1ccccc1 (centres undefined),inactive: 0.18%
3,Cc1ccccc1C(=O)NCC1(N2CCCCC2)CCCCC1,inactive: 0.04%
4,O=C(NCC1(N2CCCCC2)CCCCC1)c1cc(F)c(F)cc1Cl,inactive: 0.03%
5,C=CCN1CCN(CCOC(=O)C(O)(c2ccccc2)c2ccccc2)CC1,inactive: 0.15%
6,O=C(NCC1(N2CCCCC2)CCCCC1)c1cccc(Br)c1,inactive: 0.48%
7,CCN1CCCC(OC(=O)C2(O)c3ccccc3C=Cc3ccccc32)C1 (centres undefined),inactive: 0.02%
8,Cc1cc(C(=O)NCC2(N3CCCCC3)CCCCC2)ccc1[N+](=O)[O-],inactive: -0.31%
9,COc1ccc(C(=O)NCC2(N(C)C)CCCCC2)cc1,inactive: 0.18%
10,O=C(NCC1(N2CCCCC2)CCCCC1)c1cc([N+](=O)[O-])ccc1Cl,inactive: -0.08%
11,CN1[C@@H]2CC[C@H]1CC(OC(=O)C(O)(c1ccccc1)c1ccccc1)C2 (some centres undefined),inactive: -0.09%
12,CC(C)N1C(=O)CC2(CCN(CCOC(=O)C(O)(c3ccccc3)c3ccccc3)CC2)C1=O,inactive: 0.03%
13,COc1cc(SC)ccc1C(=O)NCC1(N(C)C)CCCCC1,inactive: -0.01%
14,CCN(CC)CC(C)C(C)OC(=O)C(O)(c1ccccc1)c1ccccc1 (centres undefined),inactive: -0.11%
15,Cc1ccc(C(=O)NCC2(N3CCCCC3)CCCCC2)cc1,inactive: -0.19%
16,O=C(OC1CN2CCC1CC2)C(CO)(c1ccccc1)c1ccccc1 (centres undefined),inactive: 0.02%
17,COc1ccc(Br)c(C(=O)NCC2(N3CCCCC3)CCCCC2)c1,inactive: -0.22%
18,CN(C)c1cccc(C(=O)NCC2(N(C)C)CCCCC2)c1,inactive: -0.09%
19,CC(C)Oc1ccc(C(=O)NCC2(N(C)C)CCCCC2)cc1,inactive: 0.13%
20,CN(C)C1(CNC(=O)c2ccc(Br)cc2)CCCCC1,inactive: -0.94%
21,COc1cc(C(=O)NCC2(N(C)C)CCCCC2)c([N+](=O)[O-])cc1OC,inactive: 0.22%
22,COc1ccc(Cl)cc1C(=O)NCC1(N(C)C)CCCCC1,inactive: -0.01%
23,COc1cccc(C(=O)NCC2(N3CCCCC3)CCCCC2)c1,inactive: -0.47%
24,O=C(NCC1(N2CCCCC2)CCCCC1)c1cccc(Cl)c1,inactive: 0.04%
